From PubChem BioAssay AID1423 (NMMLSC, 2008)
Only a part is listed here, and it is no random draw. Some of these compounds have results that are not shown, active ones among them. Active and inactive are the calls of the source. Rule as the data show it: active = response below about 60% or above about 140%; inactive = in between.

The chains behind the UniProt entries cited, without tags or fusion partners.
UniProt P09471, whole entry: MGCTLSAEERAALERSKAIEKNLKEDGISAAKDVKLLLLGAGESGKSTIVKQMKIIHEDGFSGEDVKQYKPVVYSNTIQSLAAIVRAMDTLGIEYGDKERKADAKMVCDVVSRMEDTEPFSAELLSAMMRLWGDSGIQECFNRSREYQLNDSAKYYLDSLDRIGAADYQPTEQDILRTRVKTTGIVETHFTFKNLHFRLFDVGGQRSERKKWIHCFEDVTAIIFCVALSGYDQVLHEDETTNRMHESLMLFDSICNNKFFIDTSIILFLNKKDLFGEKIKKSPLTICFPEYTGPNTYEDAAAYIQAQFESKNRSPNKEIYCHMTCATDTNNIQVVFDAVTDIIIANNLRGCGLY

These compounds were tested against Guanine nucleotide-binding protein G(o) subunit alpha (Homo sapiens) (UniProt P09471) (assay: RGS8-Galphao binding modulators, primary screen, biochemical, multiplexed bead flow cytometry (AID 1423;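 also: Galphao activated as the GDP aluminium fluoride complex binding bead-coupled RGS8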)). Settings: at 10 µM, actives lie on both sides.

| SMILES | response (percent of control binding) |
| --- | --- |
| O=C(NCC1(N2CCCCC2)CCCCC1)c1cc([N+](=O)[O-])ccc1Cl | inactive: 102% |
| CCN(CC)CC(C)C(C)OC(=O)C(O)(c1ccccc1)c1ccccc1 (stereo unspecified) | inactive: 96.7% |
| CC(C)N1C(=O)CC2(CCN(CCOC(=O)C(O)(c3ccccc3)c3ccccc3)CC2)C1=O | inactive: 99.6% |
| CN(C)C1CCCC1OC(=O)C(O)(c1ccccc1)c1ccccc1 (stereo unspecified) | inactive: 101% |
| Cc1ccccc1C(=O)NCC1(N2CCCCC2)CCCCC1 | inactive: 105% |
| C=CCN1CCN(CCOC(=O)C(O)(c2ccccc2)c2ccccc2)CC1 | inactive: 101% |
| CCN1CCCC(OC(=O)C2(O)c3ccccc3C=Cc3ccccc32)C1 (stereo unspecified) | inactive: 118% |
| COc1cccc(C(=O)NCC2(N3CCCCC3)CCCCC2)c1 | inactive: 98.1% |
| O=C(OC1CN2CCC1CC2)C(CO)(c1ccccc1)c1ccccc1 (stereo unspecified) | inactive: 101% |
| COc1ccc(Br)c(C(=O)NCC2(N3CCCCC3)CCCCC2)c1 | inactive: 100% |
| CN(C)c1cccc(C(=O)NCC2(N(C)C)CCCCC2)c1 | inactive: 99.9% |
